Source: PubChem BioAssay (National Center for Advancing Translational Sciences (NCATS))
LMNA splice mod: changes lamin A minigene splicing in HeLa cells; HeLa LMNA splicing GFP/RFP minigene ratio, 48 h; Potency, µM (top dose mostly 46.1 µM), without a hit: top-dose ratio change, negative = inhibition, actives largely listed as inhibitors; 200,000 tested, 0.01% active; AID 1487; active = well fitted inhibition curve with a large enough effect in the signal ratio, with a control signal flat, not every such curve was filed as active; inconclusive = small, poorly fitted or top-dose-only effect, or effect the other way, or a change in a side signal; the % refers to the signal ratio; also: potency is read from the fitted curve at half-maximal effect; % is scaled to controls: 0 for no effect and ±100 for the full control effect
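S3 HeLa cells stably expressing lamin A-EGFP splicing minigene plus DsRed2, 600 cells/well, 48 h compound exposure at 37C. Laser-scanning cytometry; analysed as GFP (500-530 nm)/RFP (575-640 nm) total intensity ratio; 0.5% DMSO vehicle.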
KDM4E inh: inhibitors of human JMJD2E histone demethylase. Potency, µM (doses to about 57.1 µM), for inactives: at the top dose activity change, negative = inhibition, hits mostly inhibitors. AID 2147. 230,000 tested, 1.6% active. B2RXH2. JMJD2E catalytic domain, FDH-coupled NADH fluorescence (FDH is formaldehyde dehydrogenase);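 also: potency is read from the fitted curve at half-maximal effect; 0% = wells with enzyme and -100% = buffer wells without enzyme; nearly all actives have a fitted effect of over 50% in size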
Sfp inh: Sfp phosphopantetheinyl transferase inhibition. 3.5% of 310,000 active. AID 1490. Potency, µM, inactives show max response, negative = inhibition, actives largely listed as inhibitors. Biochemical Sfp PPTase activity, qHTS; active = well fitted inhibition curve with a large enough effect; inconclusive = small, poorly fitted or top-dose-only effect, or another doubt; inactive = no such curve, though single readings can be large or run the other way;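 note: the enzyme is Sfp with the accession as filed and its product quenches rhodamine fluorescence; potency is the fitted concentration of half-maximal effect; 0% = enzyme reaction without inhibitor and -100% = no enzyme wells; top concentration of the series not given in the record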
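After 15 min at room temperature with compound, 15 nM Sfp received 5 uM rhodamine-CoA plus 12.5 uM BHQ-2-ybbR (50 mM Hepes pH 7.6, 10 mM MgCl2). Rate came from the fluorescence difference over 30 min, ex 525/em 598 nm.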
ALDH1A1 inh: ALDH1A1 (human) enzyme inhibition; 220,000 tested, 7.3% active; P00352; Purified ALDH1A1, NADH fluorescence, propionaldehyde substrate; Potency, µM (highest dose often 75.3 µM), inactives show at the highest dose activity, negative = inhibition, hits mostly inhibitors; active = well fitted inhibition curve with a large enough effect, not every such curve was filed as active; inconclusive = small, poorly fitted or top-dose-only effect, or another doubt; inactive = no such curve, though single readings can be large or run the other way;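 also: potency is read from the fitted curve at half-maximal effect; plate controls were no enzyme wells and a reference inhibitor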
miR-21 reporter: miR-21 reporter, rising signal; Potency, µM (top dose mostly 38.3 µM), for the others: at the highest dose reporter change, positive = more light; 340,000 tested, under 10 active; HeLa miR-21 FLuc reporter, luciferase, 48 h; active = well fitted rising curve with a large enough effect; inconclusive = small, poorly fitted or top-dose-only effect; inactive = no such curve, though single readings can be large or run the other way;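 note: % of control where 0% means no effect; miR-21 action dims this reporter so a rising signal means less miR-21 action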
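HeLa cells endogenously expressing miR-21, stably carrying CMV-driven firefly luciferase with a downstream miR-21 binding site, 2000 cells/well. Titrations up to approximately 40 uM, 48 hours; luciferase luminescence read.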
G9a inh: inhibitors of human histone lysine methyltransferase G9a | G9a H3K9 monomethylation, AlphaScreen, 2 h | Potency, µM (titrated, usually from 102 µM), without a hit: at the highest dose activity, negative = inhibition, usual class: inhibitors | 350,000 tested, 8.8% active | AID 504332; also: potency is read from the fitted curve at half-maximal effect; % is scaled to controls: 0 for no effect and ±100 for the full control effect; nearly all actives have a fitted effect of over 75% in size
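Quantitative HTS format: methyltransferase activity on a biotin-tagged H3K9 peptide is measured by AlphaScreen, using a rabbit anti-monomethyl-H3K9 antibody with streptavidin donor and anti-IgG acceptor beads. Final levels are 20 nM enzyme, 500 nM peptide, 20 uM SAM; 2 h RT.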
* marks the source's active call; other numbers are inactive results; [ ] = remark or other dose. A selection: hits, their analogues and other compounds. The true share with any hit is near 13%. Unless noted, calls follow the shape of the dose curve; as a rule, active = well fitted curve in the direction sought with a large enough effect; inconclusive = small, poorly fitted or top-dose-only effect, or another doubt; inactive = no such curve, though single readings can be large; an effect the other way counts as inactive or inconclusive.

Results for O=C1Nc2ccccc2C(O)(C(=O)NCc2ccco2)N1c1ccc(Cl)c(Cl)c1 (stereo not drawn) ?
LMNA splice mod: -4%; KDM4E inh: 3%; Sfp inh: -7%; ALDH1A1 inh: 25µM*; miR-21 reporter: -11%; G9a inh: 58%[59 µM]

How did Cc1ccc2c(c1)C1C=CCC1C(C(=O)O)N2 (stereo not drawn) do in these assays?
LMNA splice mod: -10%; KDM4E inh: inconclusive; Sfp inh: inconclusive; ALDH1A1 inh: inconclusive; miR-21 reporter: -4%; G9a inh: 4µM*

What do the screens show for `O=C(O)C1Nc2c(cccc2C(F)(F)F)C2C=CCC12` (stereo not drawn)?
Sfp inh: 50µM*; miR-21 reporter: -6%; G9a inh: 2.5µM*

What do the screens show for `COc1cccc(C2Nc3c(F)cc(Br)cc3C3C=CCC32)c1OC` (stereo not drawn)?
LMNA splice mod: -4%; KDM4E inh: 1%; Sfp inh: -12%; ALDH1A1 inh: 6%; miR-21 reporter: 0%; G9a inh: -2%

What do the screens show for `COc1cccc2c1NC(C(=O)O)C1CC=CC21` (stereo not drawn)?
LMNA splice mod: -11%; KDM4E inh: inconclusive; Sfp inh: 7.9µM*; ALDH1A1 inh: 8.9µM*; miR-21 reporter: 4%; G9a inh: 2.5µM*

How did COCCCNC(=S)NNC(=S)NCCCOC do in these assays?
KDM4E inh: -8%; Sfp inh: 45µM*; ALDH1A1 inh: inconclusive; miR-21 reporter: -3%; G9a inh: 8.9µM*

What do the screens show for `COCCCNC(=S)NNC(=S)Nc1cccc(Cl)c1`?
KDM4E inh: -9%; Sfp inh: 22µM*; ALDH1A1 inh: 4.5µM*; miR-21 reporter: -47%

How did CN(C)C(=O)c1ccc(-c2cncnc2-n2ccnc2)cc1 do in these assays?
LMNA splice mod: 6%; Sfp inh: 6%; ALDH1A1 inh: -4%; G9a inh: 0%[0.501 µM]

How did C[C@H]1CC2[C@@H]3CCC4=CC(=O)C=C[C@]4(C)[C@@]3(Cl)[C@@H](O)C[C@]2(C)[C@@]1(O)C(=O)CO (stereo partly drawn) do in these assays?
LMNA splice mod: inconclusive; KDM4E inh: 5%; ALDH1A1 inh: 6%; G9a inh: 53%[12.7 µM]

Results for CCCCSc1nnc2c(n1)OC(C)N(C(C)=O)c1ccccc1-2 (stereo not drawn) ?
miR-21 reporter: -12%; G9a inh: 23%[59 µM]

Results for COc1ccccc1C(=O)C1Nc2ccccc2-c2nnc(SC)nc2O1 (stereo not drawn) ?
LMNA splice mod: -7%; KDM4E inh: 0%; Sfp inh: -1%; ALDH1A1 inh: 22µM*; miR-21 reporter: -1%; G9a inh: 7.1µM*

Results for CCCCSc1nnc2c(n1)OC(C(=O)c1ccccc1)Nc1ccccc1-2 (stereo not drawn) ?
LMNA splice mod: 5%; KDM4E inh: 0%; Sfp inh: -6%; ALDH1A1 inh: 20µM*; miR-21 reporter: -20%; G9a inh: 7.1µM*

How did CCN(CC(=O)Nc1c(F)cccc1F)C(=O)c1ccc(N2C(=O)c3ccccc3C2=O)cc1 do in these assays?
G9a inh: -2%

How did COc1ccc(/C=C2\SC(=N)N(c3ccc(F)cc3)C2=O)cc1OC do in these assays?
KDM4E inh: -6%; Sfp inh: 7%; ALDH1A1 inh: 2%; miR-21 reporter: -14%; G9a inh: -22%[59 µM]

How did N=C1S/C(=C\c2ccco2)C(=O)N1c1nccs1 do in these assays?
LMNA splice mod: inconclusive; KDM4E inh: -9%; Sfp inh: inconclusive; ALDH1A1 inh: 10µM*; miR-21 reporter: -12%; G9a inh: 35µM*

Results for N=C1S/C(=C\c2ccco2)C(=O)N1c1ccc2c(c1)OCO2 ?
KDM4E inh: -4%; Sfp inh: inconclusive; ALDH1A1 inh: inconclusive; miR-21 reporter: -47%; G9a inh: 45µM*

What do the screens show for `COC(=O)N1c2ccccc2C=Cc2ccccc21`?
Sfp inh: 11%; miR-21 reporter: 15%; G9a inh: -7%

How did Cc1ccc(-c2noc(CNS(=O)(=O)c3ccccc3)n2)cc1 do in these assays?
Sfp inh: 4%; miR-21 reporter: -29%; G9a inh: 13%

How did Cc1noc(C)c1-c1nccc(NC2CC2)n1 do in these assays?
LMNA splice mod: -6%; Sfp inh: -15%; ALDH1A1 inh: -4%; G9a inh: 4%[0.501 µM]

How did CCOC(=O)c1[nH]c(C)c(/C(O)=C2\C(=O)C(=O)N(CCCn3ccnc3)C2c2ccncc2)c1C (stereo not drawn) do in these assays?
LMNA splice mod: -5%; KDM4E inh: inconclusive; Sfp inh: 11%; ALDH1A1 inh: inconclusive; miR-21 reporter: 16%; G9a inh: 50µM*

What do the screens show for `COC(=O)c1[nH]c(C)c(/C(O)=C2\C(=O)C(=O)N(CCN(C)C)C2c2ccco2)c1C` (stereo not drawn)?
LMNA splice mod: -2%; KDM4E inh: -6%; Sfp inh: 4%; ALDH1A1 inh: -5%; miR-21 reporter: -4%; G9a inh: inconclusive

What do the screens show for `CCOC(=O)c1[nH]c(C)c(/C(O)=C2\C(=O)C(=O)N(CCCN3CCOCC3)C2c2cccnc2)c1C` (stereo not drawn)?
LMNA splice mod: 0%; KDM4E inh: -7%; Sfp inh: 5%; ALDH1A1 inh: inconclusive; miR-21 reporter: 0%; G9a inh: 22µM*

How did CCOC(=O)c1[nH]c(C)c(/C(O)=C2\C(=O)C(=O)N(CCN(C)C)C2c2ccncc2)c1C (stereo not drawn) do in these assays?
LMNA splice mod: -2%; KDM4E inh: -7%; Sfp inh: 9%; ALDH1A1 inh: 6%; miR-21 reporter: -1%; G9a inh: -49%[12.7 µM]

What do the screens show for `COC(=O)c1[nH]c(C)c(/C(O)=C2\C(=O)C(=O)N(CCCN3CCOCC3)C2c2ccccn2)c1C` (stereo not drawn)?
LMNA splice mod: 6%; KDM4E inh: inconclusive; Sfp inh: 50µM*; ALDH1A1 inh: 10µM*; miR-21 reporter: 1%; G9a inh: inconclusive

How did COC(=O)c1[nH]c(C)c(/C(O)=C2\C(=O)C(=O)N(CCN(C)C)C2c2ccc(C)o2)c1C (stereo not drawn) do in these assays?
LMNA splice mod: 0%; KDM4E inh: -20%; Sfp inh: -9%; ALDH1A1 inh: -8%; miR-21 reporter: 1%; G9a inh: 40µM*

What do the screens show for `Cc1nc(-c2cccc(F)c2)sc1CCNC(=O)Cc1ccc(F)cc1`?
LMNA splice mod: inconclusive; miR-21 reporter: -2%; G9a inh: 33%[59 µM]

Three compounds picked at random from the list so far, as already listed:
How did COc1ccc(/C=C2\SC(=N)N(c3ccc(F)cc3)C2=O)cc1OC do in these assays?
KDM4E inh: -6%; Sfp inh: 7%; ALDH1A1 inh: 2%; miR-21 reporter: -14%; G9a inh: -22%[59 µM]

Results for N=C1S/C(=C\c2ccco2)C(=O)N1c1ccc2c(c1)OCO2 ?
KDM4E inh: -4%; Sfp inh: inconclusive; ALDH1A1 inh: inconclusive; miR-21 reporter: -47%; G9a inh: 45µM*

How did N=C1S/C(=C\c2ccco2)C(=O)N1c1nccs1 do in these assays?
LMNA splice mod: inconclusive; KDM4E inh: -9%; Sfp inh: inconclusive; ALDH1A1 inh: 10µM*; miR-21 reporter: -12%; G9a inh: 35µM*
